Laboratory results as given in US20230057847A1 (Scripps Research, published 2023).

Molecular target: T1, human GLP-2R (human, UniProt O95838 1-553)
T1 sequence (looked up): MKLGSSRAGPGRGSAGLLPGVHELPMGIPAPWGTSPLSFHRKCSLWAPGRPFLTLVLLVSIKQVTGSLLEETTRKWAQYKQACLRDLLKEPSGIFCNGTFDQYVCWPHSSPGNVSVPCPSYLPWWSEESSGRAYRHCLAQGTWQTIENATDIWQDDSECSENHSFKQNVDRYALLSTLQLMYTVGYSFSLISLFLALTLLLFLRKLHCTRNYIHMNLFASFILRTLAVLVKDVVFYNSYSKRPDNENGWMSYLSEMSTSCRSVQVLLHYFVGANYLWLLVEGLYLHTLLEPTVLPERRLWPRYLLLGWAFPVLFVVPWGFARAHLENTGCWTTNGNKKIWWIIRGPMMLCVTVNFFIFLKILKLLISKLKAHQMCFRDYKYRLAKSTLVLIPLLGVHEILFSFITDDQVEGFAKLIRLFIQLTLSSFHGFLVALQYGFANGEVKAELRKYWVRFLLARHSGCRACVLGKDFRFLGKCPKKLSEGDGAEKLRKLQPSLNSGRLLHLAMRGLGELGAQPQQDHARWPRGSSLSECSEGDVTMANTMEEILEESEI
Experiment: cell-based or functional assay

Row | Binder | GLP-2R - cAMP 0% FBS/nM (EC50, CRE-luciferase reporter) [nM]
1 | HGDGSFSDEMNTILDNKAARDFIKWLIQTKITDPSSGAPPPS (staple K1F attached at positions 17, 24 (lysines)) [Conjugate 21: GLP2-2G-1K-EX4 (SEQ ID NO. 16) with staple K1F at positions 17, 24] | 0.14
2 | HGDGSFSDEMNTILDNKAARDFIKWLIQTKITDPSSGAPPPS (staple K1H attached at positions 17, 24 (lysines)) [Conjugate 22: GLP2-2G-1K-EX4 (SEQ ID NO. 16) with staple K1H at positions 17, 24] | 0.23
